The values below come from ChEMBL document CHEMBL4024754, “Development of Potent, Protease-Resistant Agonists of the Parathyroid Hormone Receptor with Broad β Residue Distribution” (J Med Chem, 2017).

Protein sequences, listed by entry. Tags and fused reporters are not part of them. Lines headed by an entry give the natural chain unless they say otherwise; changes in a name come on top.
UniProt Q03431: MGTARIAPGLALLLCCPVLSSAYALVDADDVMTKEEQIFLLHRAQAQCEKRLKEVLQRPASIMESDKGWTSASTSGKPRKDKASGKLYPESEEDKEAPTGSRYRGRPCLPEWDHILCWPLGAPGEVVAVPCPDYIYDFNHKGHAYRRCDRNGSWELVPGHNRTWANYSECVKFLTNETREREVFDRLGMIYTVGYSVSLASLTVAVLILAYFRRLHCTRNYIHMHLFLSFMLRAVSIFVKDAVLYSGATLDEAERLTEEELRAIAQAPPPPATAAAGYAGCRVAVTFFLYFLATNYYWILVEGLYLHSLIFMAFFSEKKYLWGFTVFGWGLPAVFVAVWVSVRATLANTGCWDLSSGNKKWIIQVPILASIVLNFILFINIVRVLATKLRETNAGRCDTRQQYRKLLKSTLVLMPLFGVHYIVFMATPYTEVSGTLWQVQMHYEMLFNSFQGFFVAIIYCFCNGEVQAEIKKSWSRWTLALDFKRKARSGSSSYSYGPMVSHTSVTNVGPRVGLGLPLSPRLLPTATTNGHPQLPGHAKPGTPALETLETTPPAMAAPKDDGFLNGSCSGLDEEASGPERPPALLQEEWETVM

Activity calls are given as the source filed them. The calls are words filed in the database; no cut-off is given here.

Test [1] addresses Parathyroid hormone/parathyroid hormone-related peptide receptor (Homo sapiens) (UniProt Q03431). Briefly: Agonist activity at human PTH1 receptor expressed in human GP2.3 cells assessed as induction of cAMP after 12 to 20 mins by luciferase reporter gene assay relative to PTH(1 to 34 residues)-NH2. It is filed as functional, cell-based. In short, it runs like this:
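HEK293-derived lines stably expressing Glosensor cAMP reporter plus full-length human PTHR1 (GP2.3) or ECD-truncated PTHR1 (GD5). Confluent monolayers preincubated at room temperature in CO2-independent medium with 0.5 mM D-luciferin until baseline stable (30 min), then varied agonist concentrations added. Maximal luminescence (12−20 min) used for sigmoidal variable-slope fits.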

Test [2] has the same target. The test is described as follows: Displacement of [125I]-PTH(1 to 34 residues) from R0 state of human PTHR1 expressed in African green monkey COS7 cell membranes incubated for >1 hr in presence of GTPgammaS by gamma radiation method. In short, it runs like this: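 Competition binding to R0 state using membranes of Cos-7 cells transiently transfected with human PTHR1. Bound separated by filtration, γ counted.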
A general note: In a radioligand displacement assay an active substance lowers the binding of a labelled ligand.

Test [3] shares this target. The test is described as follows: Agonist activity at human PTH1 receptor expressed in human GP2.3 cells assessed as induction of cAMP at 0.1 to 100 nM preincubated with simulated gastric fluid for 3 mins followed by compound transfer to GP2.3 cells by luciferase reporter gene assay. It is filed as functional, cell-based.

Turning to ABALOPARATIDE, in test [1], the fold change (FC) came to 0.3. Further, the inhibition result in test [2] was “Active”. In addition, the result in test [3] was Active.
